By UniProt entry, the sequences of proteins in these tests, tags left out.
UniProt P41145, whole entry E297A: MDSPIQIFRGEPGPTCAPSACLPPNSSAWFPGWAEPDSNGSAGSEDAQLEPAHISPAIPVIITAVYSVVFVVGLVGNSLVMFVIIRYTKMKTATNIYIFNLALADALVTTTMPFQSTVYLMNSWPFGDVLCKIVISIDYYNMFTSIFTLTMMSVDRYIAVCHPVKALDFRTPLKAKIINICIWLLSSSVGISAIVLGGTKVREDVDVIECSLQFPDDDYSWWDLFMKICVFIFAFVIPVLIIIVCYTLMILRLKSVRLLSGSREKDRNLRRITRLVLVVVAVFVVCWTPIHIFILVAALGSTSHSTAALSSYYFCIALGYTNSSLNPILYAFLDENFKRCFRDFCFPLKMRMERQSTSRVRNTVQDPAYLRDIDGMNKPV

In paper PMC3356457 (Nature, 2012):

Biological target: hKOR E297A (Homo sapiens, UniProt P41145, E297A)
Format: binding

## Oc1ccc2c3c1O[C@H]1c4[nH]c5c(c4C[C@@]4(O)[C@@H](C2)N(CC2CC2)CC[C@]314)C[C@@]1(O)[C@H]2Cc3ccc(O)c4c3[C@@]1(CCN2CC1CC1)[C@H]5O4 [nor-BNI]
  Effect of Glu297Ala mutation on binding: significant drop
